Km and kcat/Km data for one compound are collected here from ChEMBL document CHEMBL1142182, “Novel Ambler class A beta-lactamase LAP-1 and its association with the plasmid-mediated quinolone resistance determinant QnrS1” (Antimicrob Agents Chemother, 2007).

Experiment [1] concerns Enterobacter cloacae.
Experiment [2] has as its system Enterobacter cloacae. This is another data set of the same source.

By Km is commonly meant the concentration of substrate that gives half-maximal velocity. For orientation: kcat/Km means the turnover number divided by the Michaelis constant. Turning to `CC1(C)S[C@@H]2[C@H](NC(=O)[C@H](C(=O)O)c3ccsc3)C(=O)N2[C@H]1C(=O)O` [TICARCILLIN], the Km with Enterobacter cloacae [1] came out at 40 µM. Also, in the experiment on Enterobacter cloacae [2], the kcat/Km stood at 750 mM⁻¹ s⁻¹.
